# Source: patent publication US20190144375A1, “NOVEL CARBOCYCLIC COMPOUNDS AS ROR GAMMA MODULATORS” (Glenmark Pharmaceuticals S.A., priority 2015, published 2019)
# Protein sequences, listed by entry. Tags and fused reporters are not part of them. Residues count along the entry.
# UniProt P51449, 269-508 limits assumed: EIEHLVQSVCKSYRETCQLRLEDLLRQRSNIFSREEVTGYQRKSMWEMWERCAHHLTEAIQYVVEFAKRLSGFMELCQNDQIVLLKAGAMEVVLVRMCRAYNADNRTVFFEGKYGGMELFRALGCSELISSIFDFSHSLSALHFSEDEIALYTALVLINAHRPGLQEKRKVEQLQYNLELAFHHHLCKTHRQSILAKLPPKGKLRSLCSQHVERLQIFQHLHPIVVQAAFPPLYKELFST
# Target: GST-tagged ROR gamma ligand binding domain (LBD) (Homo sapiens, UniProt P51449)
# Assay: TR-FRET assay for ROR gamma (LanthaScreen, Fluorescein-D22 co-activator peptide recruitment)
# Description: The compounds described herein were screened for ROR gamma modulator activity using the TR-FRET assay (LanthaScreen™ available from Invitrogen of Carlsbad, Calif.) as described in JBC 2011, 286, 26: 22707-10; and Drug Metabolism and Disposition 2009, 37, 10: 2069-78.
# The assay is based on the principle that binding of the agonist to the ROR gamma causes a conformational change around helix 12 in the ligand binding domain, resulting in higher affinity for the co-activator peptide. ROR gamma being constitutively active, the Fluorescein-D22 co-activator peptide used in the assay is recruited in the absence of a ligand. Binding of the co-activator peptide, causes an increase in the TR-FRET signal while binding of an antagonist decreases the recruitment of the co-activator peptide, causing a decrease in the TR-FRET signal compared to control with no compound. The assay was performed using a two-step procedure, pre-incubation step with the compound followed by the detection step on addition of the anti-GST tagged terbium (Tb) and fluorescein tagged fluorophores as the acceptor.
# Test compounds or reference compounds such as T0901317 (Calbiochem) were dissolved in dimethylsulfoxide (DMSO) to prepare 10.0 mM stock solutions and diluted to the desired concentration. The final concentration of DMSO in the reaction was 4% (v/v). The assay mixture was prepared by mixing 10 nM of the GST-tagged ROR gamma ligand binding domain (LBD) in the assay buffer containing 25 mM HEPES, 100 mM NaCl, 5 mM DTT and 0.01% BSA with or without the desired concentration of the compound. The reaction was incubated at 22° C. for 1 hour. […] After shaking for 5 minutes the reaction was further incubated for 1 hour at room temperature and read […] on an Infinite F500 reader as per the kit instructions (Invitrogen). The inhibition of test compound was calculated based on the TR-FRET ratio of 520/495. The activity was calculated as a percent of control reaction. IC50 values were calculated from dose response curve by nonlinear regression analysis using GraphPad Prism software. […]
smiles,measurement,setting,value
Cc1cc(C)cc(N(C)C(=O)c2ccc(NC(=O)Cc3ccc(C(F)(F)[C@H](C)O)cc3)cc2)c1,% Inhibition at 1 μM,"1 μM compound, TR-FRET ratio 520/495",89.44%
same,% Inhibition at 10 μM,"10 μM compound, TR-FRET ratio 520/495",93.27%
same,IC50,"read-out: IC50 value, dose response curve, class symbols",< 0.05 µM
